Values of other authors as cited in patent US8636973B2, “Method of producing pharmacologically pure crystals” (Biosyn Arzneimittel GmbH, priority 2010, dated 2014).

Details: Janitzki, solubility studies

sodium selenite [anhydrous material]
temperature at which the form is stable / exists: above 38.5 °C
